Measurements reported in US9700578B2, “Use of nitrite salts for the treatment of cardiovascular conditions” (The United States of America as represented by the …, priority 2003, dated 2017).

Experiments:
[1] = tested on: hypoxic-induced pulmonary hypertension
[2] = tested on: U46619-induced normoxic pulmonary hypertension

O=NO [sodium nitrite]
reduction of pulmonary artery resistance ([1]; FiO2 0.12, nebulized nitrite): ~70% | effect on mean arterial blood pressure or systemic vascular resistance ([1]; hypoxia, versus control animals): no measurable effect | effect on mean arterial blood pressure or systemic vascular resistance [2]: no effect
